Our source for the IC50 values is publication PMC7647070, “Mechanisms of QT prolongation by buprenorphine cannot be explained by direct hERG channel block” (PLoS ONE, 2020).

Protein sequences, listed by entry. Tags and fused reporters are not part of them. Lines headed by an entry give the natural chain unless they say otherwise; changes in a name come on top.
UniProt Q12809: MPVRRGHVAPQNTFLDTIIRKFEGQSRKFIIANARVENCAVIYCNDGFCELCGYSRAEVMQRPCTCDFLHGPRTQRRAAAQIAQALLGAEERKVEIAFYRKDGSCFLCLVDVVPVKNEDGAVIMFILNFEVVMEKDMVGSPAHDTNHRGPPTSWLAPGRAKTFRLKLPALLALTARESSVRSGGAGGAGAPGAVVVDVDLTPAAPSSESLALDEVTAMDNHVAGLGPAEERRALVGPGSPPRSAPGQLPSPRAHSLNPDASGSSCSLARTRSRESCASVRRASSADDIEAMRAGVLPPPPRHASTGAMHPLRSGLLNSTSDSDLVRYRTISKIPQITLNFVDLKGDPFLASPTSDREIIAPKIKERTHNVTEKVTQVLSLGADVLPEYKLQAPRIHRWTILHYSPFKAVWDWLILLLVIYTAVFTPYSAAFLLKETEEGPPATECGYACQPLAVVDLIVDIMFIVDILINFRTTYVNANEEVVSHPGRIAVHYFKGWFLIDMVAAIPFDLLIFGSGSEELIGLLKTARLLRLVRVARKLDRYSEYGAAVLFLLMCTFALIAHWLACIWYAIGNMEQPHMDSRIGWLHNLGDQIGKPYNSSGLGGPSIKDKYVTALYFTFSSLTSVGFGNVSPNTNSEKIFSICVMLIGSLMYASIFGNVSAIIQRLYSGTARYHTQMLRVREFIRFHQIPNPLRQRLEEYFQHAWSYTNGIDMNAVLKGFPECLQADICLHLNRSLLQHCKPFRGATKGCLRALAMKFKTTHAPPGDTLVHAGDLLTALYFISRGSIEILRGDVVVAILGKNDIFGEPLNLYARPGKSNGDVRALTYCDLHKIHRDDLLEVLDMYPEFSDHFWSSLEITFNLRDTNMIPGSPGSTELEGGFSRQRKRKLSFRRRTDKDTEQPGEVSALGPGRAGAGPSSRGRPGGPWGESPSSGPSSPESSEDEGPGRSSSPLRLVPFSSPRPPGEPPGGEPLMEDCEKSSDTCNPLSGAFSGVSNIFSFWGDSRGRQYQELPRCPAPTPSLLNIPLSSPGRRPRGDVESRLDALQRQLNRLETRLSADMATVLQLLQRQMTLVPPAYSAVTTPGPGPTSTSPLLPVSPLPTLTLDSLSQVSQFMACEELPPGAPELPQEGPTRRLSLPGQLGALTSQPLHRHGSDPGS

Data set [1] deals with hERG1a/1b (heteromeric hERG channel, IhERG) (Homo sapiens, UniProt Q12809). As to the kind of experiment: whole-cell patch clamp, tail current. As to conditions: read-out: IC50 (μM) at 37°C from this study (mean ± SD), pH […], tail at -50 mV after […] s at +[…] mV. (The patch-clamp technique gives a direct electrical read-out from membranes.)
The target in data set [2] is hERG1a (homomeric hERG channel, IhERG) (Homo sapiens, UniProt Q12809). As to the kind of experiment: whole-cell patch clamp, tail current. As to conditions: read-out: IC50 (μM) at 37°C from this study (mean ± SD), pH […], tail at -50 mV after […] s at +[…] mV.

As a reminder, the IC50 is the point on the concentration scale where inhibition reaches its midpoint. For Methadone, the IC50 was determined as 2.7 µM in data set [1] and 2.8 µM in data set [2].
